The text below walks through data of US20240166738A1 (priority 2021, published 2024).

Amino acid sequences for entries named in this document (tags omitted). A change or cut given only in a name is not applied to a line headed by its entry. Residues count along the entry.
UniProt Q9NUM4, 122-210: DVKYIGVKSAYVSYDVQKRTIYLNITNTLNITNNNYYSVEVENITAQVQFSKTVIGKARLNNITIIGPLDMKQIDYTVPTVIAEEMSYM

To fix the notation:
B1: TM-62: anti-TMEM106B monoclonal antibody; VH SEQ ID NO: 468, VL SEQ ID NO: 504 (antibody, V domains shown)
VH: QVQLQQPGTELVRPGSSVKLSCKAAGYTFTRYWMHWVKQRPIQGLEWIGNIDPSDSETQYNPKFKDKATLTVDRSSSTAYMHLSSLTSEDSAVYYCARLTTLDYAMDYWGQGTSVTVSS
VL: QIVLTQSPAIMSASPGEKVTISCSASSSVSYMYWYQQKAGSSPKPWIHRTSNLASGVPARFSGSGSGTSYSLTIRSMEAEDAATYYCQQYHSYPPTFGVGTKLELK
modifications: Variable Heavy Chain -- TM-62; Variable Light Chain -- TM-62
B2: TM-49: anti-TMEM106B monoclonal antibody; CDR-H1-3 SEQ ID NO: 33, 75, 117; CDR-L1-3 SEQ ID NO: 156, 182, 219 (antibody, V domains shown)
VH: QVQLQQPGAELVRPGSSVKLSCKASGYTFTRFWMHWVKQRPIQGLEWIGNIDPSDSQTHYNQKFKDKATLTVDKSSSTAYMQLSSLTSEDSAVYYCARLITVDYAMDYWGQGTSVTVSS
VL: QIVLTQSPAIMSASPGEKVTISCSASSSVSYMYWYQQKPGSSPKPWIHRTSNLASGVPVRFSGSGSGTSYSLTISSMEAEDAATYYCQQYHSYPPTFGAGTKLELK
B3: TM-71: anti-TMEM106B monoclonal antibody; VH SEQ ID NO: 476, VL SEQ ID NO: 512 (antibody, V domains shown)
VH: EVQLVESGGALVKPGGSLKLSCAASGFTFSNYAMSWVRQTPEKRLEWVATIGYGGSYSYYPDSVKGRFTISRDNAKNTLYLQMSSLRSEDTALYYCARQDSNYEGVWFAYWGQGTLVTVSS
VL: DIVMTQAAPSVPVTPGESVSISCRSSKSLLHTNGNTYLFWFIQRPGQSPHLLIYRKSNLASGVPDRFSGSGSGTAFTLRISRVEAEDVGVYYCMQHLEYPFTFGSGTKLEIK
modifications: Variable Heavy Chain -- TM-71; Variable Light Chain -- TM-71, TM-72
B4: TM-65: anti-TMEM106B monoclonal antibody; VH SEQ ID NO: 471, VL SEQ ID NO: 507 (antibody, V domains shown)
VH: QVQLQQPGAEFVKPGASVRLSCKTSGYTFTSSWMHWVKQRPGQGLEWIGEINPKNGGTNYNEKFKTKATLTVDKSSNTAYMQLSSLTSEDSAVYYCTIPTWFTYWGQGTLVTVSS
VL: DIQMNQSPSSLSASLGDTITITCRASQNINIWLSWYQQKPGNVPKLLIYKASNLHTGVPSRFSGSGSGTGFTLTISSLQPEDIATYYCLQGQSYPYTFGGGTKLGIK
modifications: Variable Heavy Chain -- TM-65; Variable Light Chain -- TM-65
B5: TM-8: anti-TMEM106B monoclonal antibody; CDR-H1-3 SEQ ID NO: 9, 42, 85; CDR-L1-3 SEQ ID NO: 127, 167, 191 (antibody, V domains shown)
VH: QIQLVQSGPELKKPGETVKISCKASGYTFTDYPMHWVKQAPGKGFKWMGVIYTDTGEPKYAEVFKGRFAFSLETSASTAYLQINNLKNEDTATYFCVRRLAYWGQGTLVTVSA
VL: DIKMTQSPSSMYASLGERVTITCKASQDINSYLSWFQQKPGKSPKTLIFRANRLVDGVPSRFSGSGSGQDYSLTISSLEYEDMGIYYCLQYDEFPLTFGAGTKLEMK
B6: TM-50: anti-TMEM106B monoclonal antibody; CDR-H1-3 SEQ ID NO: 31, 73, 115; CDR-L1-3 SEQ ID NO: 157, 183, 220 (antibody, V domains shown)
VH: QVQLKESGPVLVAPSQSLSITCTVSGFSLTNYGVHWVRQPPGKGLEWLGVIWAGGNTNYNSALMSRLSISKDNSKSQVFLKMNSLQTDDTAMYYCAKEAKLLRSYAMDYWGQGTLVTVSA
VL: DVQMTQTTSSLSASLGDRVTISCRASQDINNYLYWYQQKPDGTVKLLIYYTSMLHSGVPSRFSGSGSGTDYSLTISNLEQEDIATYFCQQGSTLMYTFGGGTKLEIK
B7: TM-4: anti-TMEM106B monoclonal antibody; CDR-H1-3 SEQ ID NO: 5, 38, 81; CDR-L1-3 SEQ ID NO: 123, 163, 187 (antibody, V domains shown)
VH: EVQVQQSGPVLVKPGASVKMSCKASGYTFTDYYMNWVKQSHGKNLEWIGVINPYNGGTSYHQKFKGKATLTVDKSSSTAYMELNSLTSEDSAVYYCARAATVVAGFDYWGQGTTLTVSS
VL: QAVVTQESALTTSPGETVTLTCRSSTGAVTTSNYANWVQEKPDHLFTGLIGGTNNRAPGVPARFSGSLIGDKAALTITGAQTEDEAIYFCVLWYSNHLVFGGGTKLTVL

For the assay, the target named is GST-TMEM106B (truncated, comprising amino acids 122-210 of SEQ ID NO:1) (Homo sapiens, UniProt Q9NUM4). Briefly: Pre-mix epitope binning of anti-TMEM106B antibodies (Carterra / Lake Pharma). On the set-up: key: Non-binder: an anti-TMEM106B antibody that was not capable of binding to the GST-TMEM106B polypeptide fusion used in these binning experiments (assigned bin 5). Conditions: Non-binder: not capable of binding the GST-TMEM106B fusion (assigned bin 5).
As to B1, the “Binding Community/Bin” value is reported as “Non-binder”. With B2, the “Binding Community/Bin” value is “Non-binder”.

With B3, the “Binding Community/Bin” value is “Non-binder”. As for B4, the “Binding Community/Bin” value is reported as “Non-binder”.

Consider B5, for which the “Binding Community/Bin” value is given as “Non-binder”. As for B6, the “Binding Community/Bin” value is recorded as “Non-binder”. In the case of B7 it was “Non-binder”.
